We go through three molecules from PubChem BioAssay AID696 (Sanford-Burnham Center for Chemical Genomics, 2007).

Sequences of proteins named here, by UniProt entry; tags and fusion partners are left off.
UniProt P05187, whole entry: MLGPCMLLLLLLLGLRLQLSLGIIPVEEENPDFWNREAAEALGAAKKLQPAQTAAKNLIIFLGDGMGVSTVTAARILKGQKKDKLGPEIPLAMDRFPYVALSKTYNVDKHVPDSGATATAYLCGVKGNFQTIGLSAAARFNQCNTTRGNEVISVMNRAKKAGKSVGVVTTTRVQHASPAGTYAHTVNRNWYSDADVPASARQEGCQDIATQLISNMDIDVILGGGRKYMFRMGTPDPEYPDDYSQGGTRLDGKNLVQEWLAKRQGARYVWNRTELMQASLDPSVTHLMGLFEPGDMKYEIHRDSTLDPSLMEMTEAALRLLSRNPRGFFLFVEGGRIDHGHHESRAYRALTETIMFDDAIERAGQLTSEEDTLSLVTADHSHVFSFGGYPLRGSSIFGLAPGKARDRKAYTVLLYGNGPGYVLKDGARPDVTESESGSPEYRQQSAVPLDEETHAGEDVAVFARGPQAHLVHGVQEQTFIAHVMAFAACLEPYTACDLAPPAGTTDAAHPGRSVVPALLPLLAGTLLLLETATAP

The list shows a part of the results, in another mix than the full data. Some tests of the compounds listed are not included; inactive here does not mean inactive elsewhere. Active and inactive are the calls of the source. No stated cut-off is given here; in the data, active means activation fold above about 2; inactive means the rest.

This test has as its target Alkaline phosphatase, placental type (Homo sapiens) (UniProt P05187). In words: PLAP enzyme activators, biochemical, luminescence, HTS (AID 696). As to conditions: purified PLAP enzyme, luminescent substrate read-out; at 20 µM; active compounds read high.
On to `CC(C)N1C(=O)CC2(CCN(CCOC(=O)C(O)(c3ccccc3)c3ccccc3)CC2)C1=O`, for which the activation fold is inactive: 1.4.

`CN(C)c1cccc(C(=O)NCC2(N(C)C)CCCCC2)c1`: the activation fold is inactive: 0.9.

For `O=C(OC1CN2CCC1CC2)C(CO)(c1ccccc1)c1ccccc1` (stereo not drawn), the activation fold was inactive: 1.2.
